ChEMBL document CHEMBL1127014, “Synthesis and evaluation of imidazo[1,5-a][1,4]benzodiazepine esters with high affinities and selectivities at "diazepam-insensitive" benzodiazepine receptors” (J Med Chem, 1993)

Tests used:
[1] = molecular target: GABA-A receptor; anion channel; test: Binding affinity for Diazepam-Insensitive fraction of GABA-A benzodiazepine receptors; type: protein-complex assay, Rattus norvegicus
[2] = molecular target: GABA-A receptor; anion channel; test: Binding affinity for Diazepam-Sensitive fraction of GABA-A benzodiazepine receptors; type: protein-complex assay, Rattus norvegicus

CCOC(=O)c1ncn2c1CN(C)C(=O)c1cc(N=[N+]=[N-])ccc1-2 [Ro-154513]
Ki [1]: 3.1 nM
Ki [2]: 5.3 nM
